The source of these data is patent US20230026840A1, “COMPOUND USED AS EGFR KINASE INHIBITOR AND USE THEREOF” (TYK MEDICINES, INC., priority 2019, published 2023).

The chains behind the UniProt entries cited, without tags or fusion partners. Residues count along the entry.
UniProt P00533, 25-1210 T790M/C797S/L858R limits assumed: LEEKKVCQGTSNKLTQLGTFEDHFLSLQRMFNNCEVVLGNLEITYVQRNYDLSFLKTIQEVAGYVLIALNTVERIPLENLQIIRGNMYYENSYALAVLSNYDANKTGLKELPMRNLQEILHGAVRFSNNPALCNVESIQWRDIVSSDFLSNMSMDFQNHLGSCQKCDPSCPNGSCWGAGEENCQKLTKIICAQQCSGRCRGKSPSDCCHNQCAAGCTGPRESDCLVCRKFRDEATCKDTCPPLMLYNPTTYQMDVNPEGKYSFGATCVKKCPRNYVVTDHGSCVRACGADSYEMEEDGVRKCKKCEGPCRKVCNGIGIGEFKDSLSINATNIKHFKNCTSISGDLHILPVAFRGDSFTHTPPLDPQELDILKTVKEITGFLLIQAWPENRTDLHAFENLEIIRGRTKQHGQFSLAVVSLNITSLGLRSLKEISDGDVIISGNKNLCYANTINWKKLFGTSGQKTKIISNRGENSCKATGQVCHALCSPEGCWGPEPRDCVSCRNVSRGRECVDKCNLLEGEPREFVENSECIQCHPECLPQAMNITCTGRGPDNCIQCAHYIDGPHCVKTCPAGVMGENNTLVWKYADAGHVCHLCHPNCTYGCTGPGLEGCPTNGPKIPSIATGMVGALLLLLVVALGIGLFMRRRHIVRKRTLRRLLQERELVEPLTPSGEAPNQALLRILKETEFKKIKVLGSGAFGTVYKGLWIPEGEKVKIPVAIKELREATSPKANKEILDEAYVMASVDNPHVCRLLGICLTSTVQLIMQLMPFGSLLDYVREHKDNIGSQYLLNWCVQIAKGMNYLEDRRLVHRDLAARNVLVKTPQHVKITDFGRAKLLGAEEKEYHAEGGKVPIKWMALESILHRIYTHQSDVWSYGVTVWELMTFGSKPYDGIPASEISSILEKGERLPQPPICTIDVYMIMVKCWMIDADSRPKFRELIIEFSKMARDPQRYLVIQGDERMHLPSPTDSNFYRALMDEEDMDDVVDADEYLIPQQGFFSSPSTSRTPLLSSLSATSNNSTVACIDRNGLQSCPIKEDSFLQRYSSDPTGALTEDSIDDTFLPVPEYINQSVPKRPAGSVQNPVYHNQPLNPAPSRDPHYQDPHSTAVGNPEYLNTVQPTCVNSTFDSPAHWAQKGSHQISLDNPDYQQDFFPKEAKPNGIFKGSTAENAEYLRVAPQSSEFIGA

For the assay, the target named is EGFR (L858R/T790M/C797S) kinase (Homo sapiens, UniProt P00533, C797S/L858R/T790M).

SMILES strings stand for the structures.

As to `COc1cc(N2CC3CC(C2)N3C(C)=O)ccc1Nc1ncc(Cl)c(Nc2ccccc2P(C)(C)=O)n1`, the IC50 – broadly, the concentration that gives 50% inhibition – stood at 243 nM.
